Measurements published in US10150728B2, “Alkylene derivatives” (Shionogi & Co., Ltd., priority 2013, dated 2018).

Sequences of proteins named here, by UniProt entry; tags and fusion partners are left off. Residues count along the entry.
UniProt O00763, 27-2458: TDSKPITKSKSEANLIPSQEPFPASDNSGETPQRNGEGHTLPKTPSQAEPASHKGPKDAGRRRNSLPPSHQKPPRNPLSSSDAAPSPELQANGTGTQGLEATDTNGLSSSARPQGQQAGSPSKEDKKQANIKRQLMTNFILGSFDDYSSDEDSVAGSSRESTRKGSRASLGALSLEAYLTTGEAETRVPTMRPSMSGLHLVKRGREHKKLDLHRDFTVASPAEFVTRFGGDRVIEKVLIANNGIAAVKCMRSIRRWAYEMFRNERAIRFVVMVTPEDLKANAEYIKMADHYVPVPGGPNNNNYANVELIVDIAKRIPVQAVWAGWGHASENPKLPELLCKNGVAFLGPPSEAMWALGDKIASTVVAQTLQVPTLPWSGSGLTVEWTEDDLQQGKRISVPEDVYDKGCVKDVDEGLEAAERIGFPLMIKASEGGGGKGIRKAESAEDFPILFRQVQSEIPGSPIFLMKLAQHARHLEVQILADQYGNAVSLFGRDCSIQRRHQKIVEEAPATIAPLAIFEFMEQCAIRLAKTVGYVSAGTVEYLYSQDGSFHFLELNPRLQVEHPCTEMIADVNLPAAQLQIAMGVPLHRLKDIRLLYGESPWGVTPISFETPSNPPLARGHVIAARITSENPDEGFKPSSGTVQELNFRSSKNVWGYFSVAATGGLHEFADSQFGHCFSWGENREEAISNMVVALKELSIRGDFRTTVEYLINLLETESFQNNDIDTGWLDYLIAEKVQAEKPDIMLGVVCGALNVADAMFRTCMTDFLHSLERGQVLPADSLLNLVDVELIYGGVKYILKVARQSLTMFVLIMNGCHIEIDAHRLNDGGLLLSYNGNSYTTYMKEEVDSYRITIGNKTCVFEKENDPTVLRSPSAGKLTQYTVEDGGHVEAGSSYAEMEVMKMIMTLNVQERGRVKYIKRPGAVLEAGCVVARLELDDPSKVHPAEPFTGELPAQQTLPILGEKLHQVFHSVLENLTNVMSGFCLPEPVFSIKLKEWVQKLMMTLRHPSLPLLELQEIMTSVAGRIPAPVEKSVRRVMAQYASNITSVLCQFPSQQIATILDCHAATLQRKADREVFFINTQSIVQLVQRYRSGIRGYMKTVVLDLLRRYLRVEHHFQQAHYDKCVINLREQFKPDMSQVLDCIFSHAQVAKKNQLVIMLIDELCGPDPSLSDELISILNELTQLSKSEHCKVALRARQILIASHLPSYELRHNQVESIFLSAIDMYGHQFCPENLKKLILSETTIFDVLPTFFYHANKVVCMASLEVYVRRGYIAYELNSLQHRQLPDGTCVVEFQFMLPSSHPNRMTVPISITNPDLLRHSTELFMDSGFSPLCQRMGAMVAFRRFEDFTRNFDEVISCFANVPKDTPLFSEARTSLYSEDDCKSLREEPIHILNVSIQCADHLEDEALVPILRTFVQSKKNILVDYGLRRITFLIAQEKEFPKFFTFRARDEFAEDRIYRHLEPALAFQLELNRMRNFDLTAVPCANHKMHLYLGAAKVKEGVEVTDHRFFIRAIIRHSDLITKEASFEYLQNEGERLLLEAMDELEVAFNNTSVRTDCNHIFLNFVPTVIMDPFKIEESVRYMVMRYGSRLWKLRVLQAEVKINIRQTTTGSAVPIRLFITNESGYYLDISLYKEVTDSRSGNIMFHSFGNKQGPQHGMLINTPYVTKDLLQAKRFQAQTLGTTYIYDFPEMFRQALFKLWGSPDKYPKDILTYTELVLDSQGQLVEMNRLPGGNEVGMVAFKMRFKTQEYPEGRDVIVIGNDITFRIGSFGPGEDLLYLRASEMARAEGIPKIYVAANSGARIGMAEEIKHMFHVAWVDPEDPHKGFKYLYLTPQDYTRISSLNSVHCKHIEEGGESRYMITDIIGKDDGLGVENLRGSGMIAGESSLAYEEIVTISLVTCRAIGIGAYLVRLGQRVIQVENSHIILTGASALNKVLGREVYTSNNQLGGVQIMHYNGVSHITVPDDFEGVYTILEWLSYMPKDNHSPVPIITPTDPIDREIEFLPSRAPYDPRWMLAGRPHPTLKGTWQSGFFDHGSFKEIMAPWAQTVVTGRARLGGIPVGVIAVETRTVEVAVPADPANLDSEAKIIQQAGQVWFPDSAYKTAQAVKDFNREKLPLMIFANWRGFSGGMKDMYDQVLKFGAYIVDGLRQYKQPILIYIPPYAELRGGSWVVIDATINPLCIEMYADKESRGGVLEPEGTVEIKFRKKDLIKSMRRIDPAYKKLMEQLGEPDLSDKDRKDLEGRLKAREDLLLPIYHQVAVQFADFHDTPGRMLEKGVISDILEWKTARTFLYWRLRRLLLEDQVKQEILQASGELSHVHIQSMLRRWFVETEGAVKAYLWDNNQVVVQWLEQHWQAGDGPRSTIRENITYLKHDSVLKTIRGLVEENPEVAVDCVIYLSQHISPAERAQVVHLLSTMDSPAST

Biological target: recombinant human ACC2 (Homo sapiens (Human), UniProt O00763)
Assay: Measurement of inhibitory activity on human ACC2 (MALDI-TOF MS, acetyl CoA to malonyl CoA conversion)
Format: biochemical
Details: Tables 155-159
Description: Preparation 1: Preparation of Recombinant Human ACC2
After a cDNA encoding human ACC2 (27 amino acid residue to 2458 amino acid residues from the N-terminus) was cloned from human kidney cDNA library (Clontech), human ACC2 gene containing His-tag sequence at 5′ terminus was inserted into pFastBac1 (Invitrogen). Recombinant baculovirus was generated using Bac-to-Bac baculovirus expression system (Invitrogen) according to the manufacturer's protocol. To express human ACC2, Sf-9 cells were infected with recombinant baculovirus. After infected cells were disrupted, the filtrated lysate was subjected to Ni-affinity chromatography and anion-exchange chromatography. The fractions containing human ACC2 protein were pooled as recombinant human ACC2 solution.
The Measurement of Inhibitory Activity on Human ACC1 and the ACC2
Recombinant human ACC1 and recombinant human ACC2, which were prepared by the method mentioned above, were preincubated with assay buffer solution (50 mM HEPES-KOH (pH 7.4), 10 mM magnesium chloride, 6-10 mM potassium citrate, 4 mM reduced form of glutathione, 1.5 mg/ml bovine serum albumin) for one hour. […] Then, after the samples were cocrystallized with CHCA (α-cyano-4-hydroxy cinnamic acid) matrices on MALDI target plate, by using the matrix assist laser […] time-of-flight mass spectrometer (MALDI-TOF MS), samples were measured in reflector negative mode. […]

- IC50: 0.072 µM
SMILES: CC(=O)N[C@@H](C)COC1CC(COc2nccc(-c3csc(C)n3)c2Cl)C1 (stereo partly shown) [Compound I-423]
